B1: RAC-alpha serine/threonine-protein kinase (Homo sapiens), P31749 (parent)
chain: MSDVAIVKEGWLHKRGEYIKTWRPRYFLLKNDGTFIGYKERPQDVDQREAPLNNFSVAQCQLMKTERPRPNTFIIRCLQWTTVIERTFHVETPEEREEWTTAIQTVADGLKKQEEEEMDFRSGSPSDNSGAEEMEVSLAKPKHRVTMNEFEYLKLLGKGTFGKVILVKEKATGRYYAMKILKKEVIVAKDEVAHTLTENRVLQNSRHPFLTALKYSFQTHDRLCFVMEYANGGELFFHLSRERVFSEDRARFYGAEIVSALDYLHSEKNVVYRDLKLENLMLDKDGHIKITDFGLCKEGIKDGATMKTFCGTPEYLAPEVLEDNDYGRAVDWWGLGVVMYEMMCGRLPFYNQDHEKLFELILMEEIRFPRTLGPEAKSLLSGLLKKDPKQRLGGGSEDAKEIMQHRFFAGIVWQHVYEKKLSPPFKPQVTSETDTRYFDEEFTAQMITITPPDQDDSMECVDSERRPHFPQFSYSASGTA
partner: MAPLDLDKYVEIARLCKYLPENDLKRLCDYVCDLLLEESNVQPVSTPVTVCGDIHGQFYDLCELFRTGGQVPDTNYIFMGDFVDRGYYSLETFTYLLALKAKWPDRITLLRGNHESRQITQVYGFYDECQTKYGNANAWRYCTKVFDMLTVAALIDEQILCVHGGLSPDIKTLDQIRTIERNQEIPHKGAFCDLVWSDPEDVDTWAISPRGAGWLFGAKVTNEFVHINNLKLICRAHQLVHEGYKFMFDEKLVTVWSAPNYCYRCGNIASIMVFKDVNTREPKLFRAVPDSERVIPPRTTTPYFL
B2: RAC-alpha serine/threonine-protein kinase (Homo sapiens), P31749 (parent)
chain: B1 chain
partner: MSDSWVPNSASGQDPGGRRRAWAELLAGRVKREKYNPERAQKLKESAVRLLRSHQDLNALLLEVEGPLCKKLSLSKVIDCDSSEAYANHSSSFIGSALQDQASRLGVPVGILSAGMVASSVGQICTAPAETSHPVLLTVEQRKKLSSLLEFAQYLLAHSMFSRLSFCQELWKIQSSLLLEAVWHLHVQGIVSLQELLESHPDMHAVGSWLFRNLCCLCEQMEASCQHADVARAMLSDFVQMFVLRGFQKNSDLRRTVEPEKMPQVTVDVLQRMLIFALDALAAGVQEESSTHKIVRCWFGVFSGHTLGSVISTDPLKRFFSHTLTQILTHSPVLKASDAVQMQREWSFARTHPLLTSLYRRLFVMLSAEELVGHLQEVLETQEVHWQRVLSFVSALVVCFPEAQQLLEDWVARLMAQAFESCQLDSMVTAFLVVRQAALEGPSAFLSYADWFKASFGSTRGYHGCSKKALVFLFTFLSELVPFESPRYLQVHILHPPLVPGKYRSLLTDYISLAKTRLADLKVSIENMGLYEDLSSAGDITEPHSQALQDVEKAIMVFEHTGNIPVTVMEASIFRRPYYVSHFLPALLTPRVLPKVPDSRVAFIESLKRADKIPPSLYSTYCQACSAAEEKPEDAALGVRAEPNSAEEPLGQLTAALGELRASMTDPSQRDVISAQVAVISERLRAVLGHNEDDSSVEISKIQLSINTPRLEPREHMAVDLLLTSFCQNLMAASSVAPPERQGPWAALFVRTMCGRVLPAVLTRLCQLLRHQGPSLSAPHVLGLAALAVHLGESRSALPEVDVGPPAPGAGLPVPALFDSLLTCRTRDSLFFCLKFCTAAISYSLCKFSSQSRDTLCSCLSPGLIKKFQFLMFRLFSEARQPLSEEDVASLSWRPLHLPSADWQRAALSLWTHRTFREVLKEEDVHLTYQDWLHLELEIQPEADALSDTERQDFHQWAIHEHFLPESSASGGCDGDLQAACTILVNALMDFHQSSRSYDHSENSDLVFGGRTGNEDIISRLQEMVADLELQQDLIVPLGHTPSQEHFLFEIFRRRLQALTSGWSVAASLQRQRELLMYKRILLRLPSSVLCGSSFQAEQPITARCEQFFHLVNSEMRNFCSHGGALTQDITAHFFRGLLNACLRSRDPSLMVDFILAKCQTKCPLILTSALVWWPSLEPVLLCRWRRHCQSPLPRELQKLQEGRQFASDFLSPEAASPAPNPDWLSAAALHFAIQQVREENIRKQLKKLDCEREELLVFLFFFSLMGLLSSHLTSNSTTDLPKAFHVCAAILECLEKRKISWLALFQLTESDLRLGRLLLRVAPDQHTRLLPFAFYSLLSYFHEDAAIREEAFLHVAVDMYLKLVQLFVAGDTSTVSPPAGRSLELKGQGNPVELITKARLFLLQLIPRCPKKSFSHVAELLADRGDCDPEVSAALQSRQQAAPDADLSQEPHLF
B3: RAC-alpha serine/threonine-protein kinase (Homo sapiens), P31749 (parent)
chain: B1 chain
partner: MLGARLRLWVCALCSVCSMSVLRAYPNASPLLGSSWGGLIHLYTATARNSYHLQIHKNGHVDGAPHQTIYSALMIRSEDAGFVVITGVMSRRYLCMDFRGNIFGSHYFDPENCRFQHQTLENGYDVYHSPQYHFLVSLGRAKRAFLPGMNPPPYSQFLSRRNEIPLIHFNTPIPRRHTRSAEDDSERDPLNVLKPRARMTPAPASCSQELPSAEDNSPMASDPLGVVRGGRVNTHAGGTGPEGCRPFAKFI
B4: RAC-alpha serine/threonine-protein kinase (Homo sapiens), P31749 (parent)
chain: B1 chain
partner: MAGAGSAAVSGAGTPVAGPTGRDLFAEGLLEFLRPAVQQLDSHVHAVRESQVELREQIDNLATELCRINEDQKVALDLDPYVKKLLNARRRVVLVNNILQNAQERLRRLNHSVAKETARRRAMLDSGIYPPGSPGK
B5: RAC-alpha serine/threonine-protein kinase (Homo sapiens), P31749 (parent)
chain: B1 chain
partner: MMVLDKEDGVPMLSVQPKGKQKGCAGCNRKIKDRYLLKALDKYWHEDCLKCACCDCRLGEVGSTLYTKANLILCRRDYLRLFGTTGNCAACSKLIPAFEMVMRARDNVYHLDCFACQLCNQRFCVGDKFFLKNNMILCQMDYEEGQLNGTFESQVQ
B6: RAC-alpha serine/threonine-protein kinase (Homo sapiens), P31749 (parent)
chain: B1 chain
partner: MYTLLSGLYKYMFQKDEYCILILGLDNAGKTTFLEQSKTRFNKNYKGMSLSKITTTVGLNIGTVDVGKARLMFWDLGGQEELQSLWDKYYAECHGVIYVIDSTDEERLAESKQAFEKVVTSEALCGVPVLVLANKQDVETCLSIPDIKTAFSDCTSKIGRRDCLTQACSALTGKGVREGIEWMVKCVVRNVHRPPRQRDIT
B7: RAC-alpha serine/threonine-protein kinase (Homo sapiens), P31749 (parent)
chain: B1 chain
partner: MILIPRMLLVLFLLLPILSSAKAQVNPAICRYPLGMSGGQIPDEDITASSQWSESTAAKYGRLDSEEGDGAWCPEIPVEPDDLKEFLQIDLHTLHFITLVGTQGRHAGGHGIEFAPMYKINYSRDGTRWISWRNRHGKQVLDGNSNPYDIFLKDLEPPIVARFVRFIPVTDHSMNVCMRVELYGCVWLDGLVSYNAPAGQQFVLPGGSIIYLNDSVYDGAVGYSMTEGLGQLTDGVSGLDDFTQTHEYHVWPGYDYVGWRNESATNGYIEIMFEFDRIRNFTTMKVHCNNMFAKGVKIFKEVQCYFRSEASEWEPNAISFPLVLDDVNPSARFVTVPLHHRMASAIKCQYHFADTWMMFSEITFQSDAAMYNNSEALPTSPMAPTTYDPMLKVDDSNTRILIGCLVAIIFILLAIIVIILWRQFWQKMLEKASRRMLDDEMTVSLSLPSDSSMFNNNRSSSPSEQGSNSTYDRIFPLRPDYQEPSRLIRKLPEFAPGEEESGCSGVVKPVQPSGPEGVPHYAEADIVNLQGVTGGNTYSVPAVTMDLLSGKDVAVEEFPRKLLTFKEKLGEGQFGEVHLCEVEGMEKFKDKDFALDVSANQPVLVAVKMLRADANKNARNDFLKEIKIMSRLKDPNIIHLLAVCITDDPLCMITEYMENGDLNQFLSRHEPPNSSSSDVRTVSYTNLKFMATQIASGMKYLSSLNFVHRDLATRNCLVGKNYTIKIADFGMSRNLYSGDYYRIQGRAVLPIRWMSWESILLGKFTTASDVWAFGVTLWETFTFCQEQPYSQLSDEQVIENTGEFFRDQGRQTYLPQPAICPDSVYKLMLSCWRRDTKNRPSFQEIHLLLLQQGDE
B8: RAC-alpha serine/threonine-protein kinase (Homo sapiens), P31749 (parent)
chain: B1 chain
partner: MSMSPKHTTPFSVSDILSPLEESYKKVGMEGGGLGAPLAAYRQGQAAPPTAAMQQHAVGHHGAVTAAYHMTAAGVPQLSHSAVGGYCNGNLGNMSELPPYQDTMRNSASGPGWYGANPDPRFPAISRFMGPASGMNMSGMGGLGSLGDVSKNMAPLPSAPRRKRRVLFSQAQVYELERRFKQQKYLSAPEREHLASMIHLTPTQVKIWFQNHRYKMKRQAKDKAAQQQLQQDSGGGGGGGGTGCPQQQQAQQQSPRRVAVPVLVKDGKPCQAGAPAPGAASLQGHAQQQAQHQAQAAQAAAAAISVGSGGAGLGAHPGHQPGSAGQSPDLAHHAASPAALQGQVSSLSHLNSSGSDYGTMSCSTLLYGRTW
B9: RAC-alpha serine/threonine-protein kinase (Homo sapiens), P31749 (parent)
chain: B1 chain
partner: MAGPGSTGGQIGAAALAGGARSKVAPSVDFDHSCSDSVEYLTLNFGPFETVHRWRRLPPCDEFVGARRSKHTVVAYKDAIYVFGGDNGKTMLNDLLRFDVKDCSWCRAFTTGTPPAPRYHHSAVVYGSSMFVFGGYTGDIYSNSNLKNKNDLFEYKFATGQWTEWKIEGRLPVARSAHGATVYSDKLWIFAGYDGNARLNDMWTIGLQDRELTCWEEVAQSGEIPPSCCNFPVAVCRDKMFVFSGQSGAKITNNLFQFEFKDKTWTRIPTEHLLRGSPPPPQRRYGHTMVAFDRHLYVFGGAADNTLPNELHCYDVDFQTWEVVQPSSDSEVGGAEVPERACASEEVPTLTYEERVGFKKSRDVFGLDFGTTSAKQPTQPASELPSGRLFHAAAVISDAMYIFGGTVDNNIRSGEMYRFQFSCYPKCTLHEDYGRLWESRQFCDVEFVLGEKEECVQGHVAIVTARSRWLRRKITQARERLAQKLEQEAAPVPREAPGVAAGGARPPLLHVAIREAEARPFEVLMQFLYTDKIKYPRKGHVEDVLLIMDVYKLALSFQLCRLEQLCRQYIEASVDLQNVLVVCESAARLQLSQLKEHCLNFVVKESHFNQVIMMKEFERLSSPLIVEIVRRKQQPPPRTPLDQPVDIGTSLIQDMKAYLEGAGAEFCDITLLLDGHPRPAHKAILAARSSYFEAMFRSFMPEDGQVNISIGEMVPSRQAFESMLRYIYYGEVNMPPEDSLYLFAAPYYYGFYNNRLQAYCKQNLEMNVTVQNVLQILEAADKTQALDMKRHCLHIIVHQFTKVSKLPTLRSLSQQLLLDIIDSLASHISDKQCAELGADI
B10: RAC-alpha serine/threonine-protein kinase (Homo sapiens), P31749 (parent)
chain: B1 chain
partner: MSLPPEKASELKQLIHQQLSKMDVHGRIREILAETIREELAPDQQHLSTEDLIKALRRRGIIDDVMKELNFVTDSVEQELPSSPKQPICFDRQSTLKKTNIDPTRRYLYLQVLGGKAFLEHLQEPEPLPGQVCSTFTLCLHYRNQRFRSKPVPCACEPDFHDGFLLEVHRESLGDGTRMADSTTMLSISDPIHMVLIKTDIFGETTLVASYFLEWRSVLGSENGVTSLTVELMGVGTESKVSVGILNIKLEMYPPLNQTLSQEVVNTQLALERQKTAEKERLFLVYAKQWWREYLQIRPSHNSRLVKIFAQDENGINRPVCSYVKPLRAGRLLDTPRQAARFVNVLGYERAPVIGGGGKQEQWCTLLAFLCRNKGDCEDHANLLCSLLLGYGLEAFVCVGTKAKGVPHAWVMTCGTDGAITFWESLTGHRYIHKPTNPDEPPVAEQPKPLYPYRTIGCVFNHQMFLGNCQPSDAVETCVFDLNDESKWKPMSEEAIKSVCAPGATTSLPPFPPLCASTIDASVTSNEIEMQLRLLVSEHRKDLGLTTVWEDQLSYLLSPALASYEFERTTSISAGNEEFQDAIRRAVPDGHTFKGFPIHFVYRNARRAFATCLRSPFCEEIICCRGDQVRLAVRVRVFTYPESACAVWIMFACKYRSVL

The variants in the first experiment derive from B1. The following applies: with ppp6_human PPP6C.
Turning to E17K, the “effect of a mutation on the interaction” value is on record as “with no effect”.

Variants of B2 are the subject of another experiment. The note with it: with fanca_human FANCA.
In the case of E17K, the “effect of a mutation on the interaction” value was “with no effect”.

The variants in the next experiment derive from B3. The note with it: with fgf23_human FGF23, Q9GZV9.
Turning to E17K, the “effect of a mutation on the interaction” value is “causing an interaction”.

The variants in a further experiment derive from B3. The following applies: with fgf23_human FGF23, Q9GZV9. This is another data set of the same source.
Regarding E17K, the “effect of a mutation on the interaction” value is “increasing interaction strength”.

Variants of B4 are the subject of the next experiment. The following applies: with snapn_human SNAPIN.
As to E17K, the “effect of a mutation on the interaction” value is “with no effect”.

The variants in a further experiment derive from B5. The note with it: with rbtn1_human LMO1, P25800.
For the variant E17K, the “effect of a mutation on the interaction” value is on record as “with no effect”.

The next experiment covers variants of B6. The note with it: with arfrp_human ARFRP1, Q13795.
On to E17K, for which the “effect of a mutation on the interaction” value is recorded as “with no effect”.

In a further experiment the parent is B7. The following applies: with ddr2_human DDR2, Q16832.
For E17K, the “effect of a mutation on the interaction” value is recorded as “with no effect”.

A further experiment covers variants of B8. The following applies: with nkx21_human NKX2-1, P43699.
For the variant E17K, the “effect of a mutation on the interaction” value is listed as “with no effect”.

Variants of B9 are the subject of a further experiment. The note with it: with lztr1_human LZTR1, Q8N653.
For E17K, the “effect of a mutation on the interaction” value is given as “with no effect”.

Variants of B10 are the subject of another experiment. The following applies: with cep76_human CEP76, Q8TAP6.
With E17K, the “effect of a mutation on the interaction” value is “with no effect”.

The record behind these values is IntAct's records for PubMed 35512704.
